Reference: ChEMBL document CHEMBL3612012, “Identification of orally-bioavailable antagonists of the TRPV4 ion-channel” (Bioorg Med Chem Lett, 2015)

Tested on: Vasoactive intestinal polypeptide receptor 1
Experiment: Binding affinity to human VIP1 receptor assessed as inhibition of control specific binding at 10 uM

Compound: CC(C)N1CCN(S(=O)(=O)c2ccc(NC(=O)c3ccc(C(F)(F)F)cc3[N+](=O)[O-])cc2)CC1
- inhibition: 2%
